Values quoted from earlier work in patent publication US7226990B2, “Extendin derivatives” (Novo Nordisk A/S, priority 1998, dated 2007).

Details: in humans; reference (19)

glucagon-like peptide-1 [GLP-1]
plasma half-life: 2 min
